We go through 15 molecules from PubChem BioAssay (NCI).

The structures appear in SMILES notation. “And” between values parts separate entries of the source, which are not always exact repeats. Identical values can stand only once. The list shows a part of the results, in another mix than the full data.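 48-hour exposure, single concentration, 96-well plates; percent growth endpoint where 0 means no net growth. Active: below 10.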 The source made the active and inactive calls.

The subject of this experiment is NCI-H23 lung. The experiment can be described thus: NCI-60 one-dose screen, 48 h (100 = growth as untreated, 0 = no growth, -100 = all killed). As to conditions: 10 µM.
As to `CCCOP(=S)(Cl)OCCC`, the growth is inactive: 106%.
With `CN(C)CCS` the figure was inactive: 98.4% and inactive: 105%; with `O=C(O)C1(O)c2ccccc2-c2ccccc21`, inactive: 98.4% and inactive: 98%.
With `Nc1cccc(Cl)c1.O=[N+]([O-])c1cc([N+](=O)[O-])c(O)c([N+](=O)[O-])c1`, the growth is inactive: 103%.
For `OCCSCCO` the value was inactive: 103%; for `Nc1cc([As](Cl)Cl)cc(N)c1O`, inactive: 66.4%; for `O=[N+]([O-])N(CCN(CC(Br)([N+](=O)[O-])[N+](=O)[O-])[N+](=O)[O-])CC(Br)([N+](=O)[O-])[N+](=O)[O-]`, inactive: 99.8%.
For the molecule `O=C1N([N+](=O)[O-])CCN1[N+](=O)[O-]`, the growth was inactive: 108%.
For `CC[N+]([O-])(CC)Cc1ccccc1.O=[N+]([O-])c1cc([N+](=O)[O-])c(S(=O)(=O)O)c([N+](=O)[O-])c1` the value was inactive: 106%; for `CP(=O)(OCCCl)N(CCCl)CCCl` (stereo not given), inactive: 103%; for `CN(CCO)CCCl.O=[N+]([O-])c1cc([N+](=O)[O-])c(O)c([N+](=O)[O-])c1`, inactive: 96.4%.
Take `CCN(CC)CCOC(=O)C(O)(c1ccccc1)c1cc(C)c(C)c(C)c1C` (stereo not given): the growth was inactive: 94.5%.
With `CCN(CC)CCOC(=O)C(O)(c1ccccc1)c1cc(C)cc(C)c1C` (stereo not given), the growth is inactive: 110%.
For the molecule `CCN(C)CC.O=[N+]([O-])c1cc([N+](=O)[O-])c(O)c([N+](=O)[O-])c1`, the growth was inactive: 98.4%.
In the case of `O=C(Cl)c1c([N+](=O)[O-])cc([N+](=O)[O-])cc1[N+](=O)[O-]`, the growth is inactive: 78%.
